For the experiment, the target named is human orexin-2 receptor (Homo sapiens (Human), UniProt O43614). Put plainly: In vitro intracellular calcium measurements (FLIPR), antagonism of orexin-A response, OX2. It counts as cell-based. The note with it: CHO cells expressing human orexin-2 receptor; 3 nM orexin-A; compound incubation time 120 min. Background: Calcium flux is commonly read through the fluorescence of an indicator in the cells.

Chains of the proteins cited; added tags and fusions are not shown.
UniProt O43614, whole entry: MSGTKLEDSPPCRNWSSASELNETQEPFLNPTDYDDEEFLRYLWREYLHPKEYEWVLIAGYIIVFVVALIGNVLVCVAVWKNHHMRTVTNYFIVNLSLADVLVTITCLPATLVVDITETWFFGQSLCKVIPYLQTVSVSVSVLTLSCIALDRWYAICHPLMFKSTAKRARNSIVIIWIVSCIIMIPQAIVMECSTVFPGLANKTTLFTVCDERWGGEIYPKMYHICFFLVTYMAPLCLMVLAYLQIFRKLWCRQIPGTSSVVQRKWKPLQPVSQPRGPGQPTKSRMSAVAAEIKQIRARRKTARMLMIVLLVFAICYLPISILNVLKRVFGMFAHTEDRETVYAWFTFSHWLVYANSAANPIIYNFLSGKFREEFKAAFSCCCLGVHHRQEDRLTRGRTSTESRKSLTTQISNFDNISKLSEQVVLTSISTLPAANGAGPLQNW

Molecules are shown by their SMILES. pIC50: −log10 of the molar value.

Broadly, the pIC50 is the negative decadic logarithm of the IC50, by convention in mol/L. With `Cc1cccc(-c2ocnc2C(=O)Nc2cnn(CCN3CCc4ccccc43)c2)c1` [Example 16, 5-m-Tolyl-oxazole-4-carboxylic acid {1-[2-(2,3-dihydro-indol-1-yl)-ethyl]-1H-pyrazol-4-yl}-amide], the pIC50 is 6.43.

The record behind these values is patent US9303023B2, “Pyrazole and imidazole derivatives useful as orexin antagonists” (ACTELION PHARMACEUTICALS LTD., priority 2011, dated 2016).
